Measured values: ChEMBL document CHEMBL1126551, “Three-dimensional quantitative structure-activity relationships of 5-HT receptor binding data for tetrahydropyridinylindole derivatives: a comparison of the Hansch and CoMFA methods” (J Med Chem, 1993)

The chains behind the UniProt entries cited, without tags or fusion partners.
UniProt P19327, whole entry: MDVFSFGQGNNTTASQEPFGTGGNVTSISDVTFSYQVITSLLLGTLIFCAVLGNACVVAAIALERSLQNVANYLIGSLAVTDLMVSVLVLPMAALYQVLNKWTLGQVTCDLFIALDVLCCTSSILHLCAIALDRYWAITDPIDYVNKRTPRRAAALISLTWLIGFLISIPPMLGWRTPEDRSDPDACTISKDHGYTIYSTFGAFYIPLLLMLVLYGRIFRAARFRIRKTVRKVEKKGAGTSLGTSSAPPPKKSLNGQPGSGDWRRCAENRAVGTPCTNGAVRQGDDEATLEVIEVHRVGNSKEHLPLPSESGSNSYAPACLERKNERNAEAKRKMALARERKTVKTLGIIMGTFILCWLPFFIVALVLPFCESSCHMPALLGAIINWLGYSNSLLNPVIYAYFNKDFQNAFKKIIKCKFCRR

Biological target: 5-hydroxytryptamine receptor 1A (Rattus norvegicus, UniProt P19327)

With COc1ccc2[nH]cc(C3=CCNCC3)c2c1 [RU-24969] the pKi was 7.96.

pKi: −log10 of the molar value.
